The record followed here is ChEMBL document CHEMBL1158541, “Water-soluble PDE4 inhibitors for the treatment of dry eye” (Bioorg Med Chem Lett, 2010).

By UniProt entry, the sequences of proteins in these tests, tags left out. Where a name states a change or a piece, a line headed by the entry shows the natural chain unless it says otherwise.
UniProt Q07343: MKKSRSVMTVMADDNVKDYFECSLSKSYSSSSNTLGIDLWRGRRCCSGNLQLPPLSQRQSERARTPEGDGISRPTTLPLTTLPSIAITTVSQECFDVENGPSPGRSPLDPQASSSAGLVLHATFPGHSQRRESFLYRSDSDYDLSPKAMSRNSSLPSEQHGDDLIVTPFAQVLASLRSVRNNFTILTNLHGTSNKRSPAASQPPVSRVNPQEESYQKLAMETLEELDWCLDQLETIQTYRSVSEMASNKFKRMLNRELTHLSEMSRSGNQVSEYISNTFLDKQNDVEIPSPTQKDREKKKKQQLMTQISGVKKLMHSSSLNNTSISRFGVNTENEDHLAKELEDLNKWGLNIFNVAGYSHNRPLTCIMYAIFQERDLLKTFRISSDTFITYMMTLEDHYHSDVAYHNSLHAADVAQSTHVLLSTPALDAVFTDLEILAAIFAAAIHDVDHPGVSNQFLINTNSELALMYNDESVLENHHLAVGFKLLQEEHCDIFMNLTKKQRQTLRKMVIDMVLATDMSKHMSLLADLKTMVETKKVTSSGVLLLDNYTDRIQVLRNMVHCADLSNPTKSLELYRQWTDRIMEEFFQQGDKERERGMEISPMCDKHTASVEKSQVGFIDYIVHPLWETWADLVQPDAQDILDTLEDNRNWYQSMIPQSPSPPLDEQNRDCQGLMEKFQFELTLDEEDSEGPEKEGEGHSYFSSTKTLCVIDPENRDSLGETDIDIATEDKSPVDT

As usually defined, the IC50 is the concentration that inhibits the measured activity by half.

The experiment addresses 3',5'-cyclic-AMP phosphodiesterase 4B (Homo sapiens, UniProt Q07343). Put plainly: Inhibition of human His6-tagged PDE4B (152-487) expressed in Escherichia coli BL21 (DE3) after 1 hr.

The compound `COc1ccc2c(Nc3c(Cl)cncc3Cl)cc(=O)oc2c1OC1CCCC1` yielded a 50% inhibitory concentration (IC50) of 5 nM.
